Results published in ChEMBL document CHEMBL3271956, “Oxindole-3-spiropyrrolidines and -piperidines. Synthesis and local anesthetic activity” (J Med Chem, 1976).

Tested on: Mus musculus
Assay: Toxicity in iv dosed mouse relative to lidocaine
Format: organism-based
Settings: in vivo

Question: `CCN(CC)CC(=O)Nc1c(C)cccc1C` [LIDOCAINE] was tested. Which Ratio did it give?
Answer: 1
